Consider 1 molecule from US20230357422A1 (published 2023).

For this test, the target named is HZ-L-Yr-13&14-16-1. Put plainly: ELISA on coated his-tagged protein. As to the method: Human 4-1BB-his, GITR-his, OX40-his, CD40-his proteins (purchased from ACRO) were dissolved according to the instructions, diluted to 1 μg/ml with ELISA coating solution (purchased from Shanghai Sangon), coated on ELISA plate at 100 allowed to stand overnight at 4° C., and washed for 3 times with PBST, 5% BSA (purchased from Shanghai Sangon) was added at 200 μl/well to block for 1 hour at room temperature. The coating solution was discarded, 4-1BB antibody diluted with 1% BSA was added at 100 200 nM in three replicate wells, and incubated at room temperature for 2 hours. Washing was performed with PBST for 3 times, and goat anti-human IgG-Fc-HRP (purchased from abcam) diluted with 1% BSA was added at 100 μl/well, and incubated at room temperature for 1 hour. Washing was performed 3 times with PBST, ELISA chromogenic solution (purchased from Solarbio) was added at 100 μl/well to react at room temperature for 3 minutes, ELISA stop solution (purchased from Solarbio) was added at 50 and the absorbance value at 450 nm was read.
On the technique in general: ELISA stands for enzyme-linked immunosorbent assay.

B1: CD40-his (receptor, human, UniProt P25942 21-193, looked up)
chain: EPPTACREKQYLINSQCCSLCQPGQKLVSDCTEFTETECLPCGESEFLDTWNRETHCHQHKYCDPNLGLRVQQKGTSETDTICTCEEGWHCTSEACESCVLHRSCSPGFGVKQIATGVSDTICEPCPVGFFSNVSSAFEKCHPWTSCETKDLVVQQAGTNKTDVVCGPQDRLR
notes: 'Human' heads the list and is read as applying to all four proteins; not shown: his tag
B1: the binding result is on record as “no binding (tested: 200 nM)”.
